Experimental data from patent publication US9872831B2, “Pharmaceutical composition of oxidised avidin suitable for inhalation” (ALFASIGMA S.P.A., priority 2011, dated 2018).

Key:
[1] = design: species or system Balb/c mice; conditions: mouse, in vivo
Experimental: Balb/c mice of about 20 g were treated in the indicated sites with a solution of avidin or oxidized avidin as obtained following the procedure described at example 1 of WO2009016031 (3.0 mg/ml dissolved in 100 mM sodium acetate, pH 5.5) pre-complexed with ^111In-ST2210. Twenty four hours after injection/deposition, the mice were sacrificed by CO2 asphyxia and the treated sites analysed by means of a gamma counter. Data are reported in FIG. 1, and are expressed as the % of injected dose/100 mg of tissue (% ID/100 mg).

[2] = Uptake of i.v. 111In-ST2210 in lung and non target organs 24 h after inhalation exposure; conditions: 2 h after i.v. 111In-ST2210, 24 h after inhalation
[3] = test system: EGFR+ epidermoid carcinoma cells A431; assay: Binding of biotinylated cetuximab to cells by cytofluorimetry; type: cell-based, Human; conditions: 0.05 ng and 0.05 pg/ml, in the presence of oxidized avidin
Experimental: (§1) Human EGFR^+, epidermoid carcinoma cells A431 were incubated in PBS for 1 hour with 1 ml of an anti-EGFR monoclonal biotinylated antibody (i.e., biotinylated cetuximab) in the dose range of 0.05 pg/ml to 5 μg/ml. In one experiment the cells were previously incubated with oxidized avidin meanwhile in the first experiment, cells were only treated with biotinylated cetuximab.
After washings, biotinylated cetuximab binding was detected by cytofluorimetry after incubation with a mouse anti-human antibody conjugated with phycoerythrin (PE).

A431 cells [4] = assay: Inhibition of proliferation, Cell Titer Glow assay; type: cell-based, Human; conditions: with versus without oxidized avidin; even at 0.05 ng and 0.05 pg/ml
Experimental: as §1
Proliferation inhibition was measured by Cell Titer Glow assay, Promega. Data are expressed as % of inhibition of cell proliferation in the absence of oxidized avidin (i.e., white bars) or in its presence (i.e., black bars).

EGFR+ A431 cells = assay: Induction of apoptosis, Annexin V cytofluorimetry; type: cell-based; conditions: 15 minutes incubation, 18 hours in complete medium; with versus without AvidinOX
Experimental: (§2) The cells were incubated for 15 minutes with biotinylated cetuximab (b-cetuximab) in the presence or absence of AvidinOX pre-treatment. After washings, the cells were incubated in complete medium for 18 hours. Annexin V positive cells were analysed by cytofluorimetry with FITC-Annexin V apoptosis detection kit I (BD Pharmingen).

EGFR− SKMel28 cells = assay: Induction of apoptosis, Annexin V cytofluorimetry; type: cell-based; conditions: 15 minutes incubation, 18 hours in complete medium; with versus without AvidinOX
Experimental: as §2

A431 cells [5] = assay: Inhibition of proliferation, CellTiter-Glow; type: cell-based, human
Experimental: (§3) Inhibition of proliferation by biotinylated cetuximab with or without pre-treatment with AvidinOX was tested on A431, A549 (i.e., lung carcinoma, low EGFR, KRAS mutated) and SKMel28 cells. For testing the effect of anchored biotinylated cetuximab on cell proliferation, 5×10^5 A431, A549 and SKMel28 cells, with and without pre-incubation with AvidinOX, were seeded in 96 wells microtiter plates (2×10^3 cells/well) in DMEM, 10% FCS. After adhesion, 100 μl of biotinylated cetuximab were added, in triplicates, in the range of 0.05 pg/ml to 5 μg/ml, in DMEM 1% FCS. The cells were washed after 15 minutes and cultivated for 48 hours in DMEM 1% FCS. Cell viability was detected by CellTiter-Glow® (Promega).

A549 cells = assay: Inhibition of proliferation, CellTiter-Glow; type: cell-based, human
Experimental: as §3

SKMel28 cells = assay: Inhibition of proliferation, CellTiter-Glow; type: cell-based; conditions: 0.05 pg/ml to 5 μg/ml, 15 minutes, then 48 hours culture; EGFR−
Experimental: as §3

[6] = AvidinOX pre-incubated cells versus without

Avidin/^111In-ST2210 complex: avidin pre-complexed with 111In-ST2210 [reference compound]
tissue residence of complex [1]: did not lead to similar results

Oxidized avidin: chemically oxidized avidin according to example 1 of WO2009016031, about 8 to 15 aldehyde moieties
111In-ST2210 % ID/g Brain [2]: 0.002 ± 0.000 % ID/g

biotinylated cetuximab: anti-EGFR monoclonal biotinylated antibody
binding to A431 cells at low doses [3]: still visible
increase of anti proliferative activity owing to binding to membrane bound oxidized avidin (A431 cells [4]): at least 3 times
increase of pro-apoptotic effect when AvidinOX is anchored on the cell membrane (EGFR+ A431 cells): at least 3 times
increase of pro-apoptotic effect when AvidinOX is anchored on the cell membrane (EGFR− SKMel28 cells): not of the EGFR^− cells
inhibition of proliferation (A431 cells [5]; 0.05 pg/ml to 5 μg/ml, 15 minutes, then 48 hours culture, high EGFR): able to inhibit proliferation
inhibition of proliferation when AvidinOX-anchored on the cell surface (A431 cells [5]; [6]): significantly improved
inhibition of proliferation (A549 cells; 0.05 pg/ml to 5 μg/ml, 15 minutes, then 48 hours culture, low EGFR, KRAS mutated): able to inhibit proliferation
inhibition of proliferation when AvidinOX-anchored on the cell surface (A549 cells; [6]): significantly improved
inhibition of proliferation (SKMel28 cells): not proliferation of EGFR^− cells

oxidized avidin/^111In-ST2210 complex: oxidized avidin pre-complexed with 111In-ST2210
tissue residence of complex [1]: did not lead to similar results
